Results from patent US20160222014A1, “COMPOUNDS FOR REGULATING FAK AND/OR SRC PATHWAYS” (ASANA BIOSCIENCES, LLC, priority 2013, published 2016).

Protein sequences, listed by entry. Tags and fused reporters are not part of them. Residues count along the entry.
UniProt Q05397, 422-680 limits assumed: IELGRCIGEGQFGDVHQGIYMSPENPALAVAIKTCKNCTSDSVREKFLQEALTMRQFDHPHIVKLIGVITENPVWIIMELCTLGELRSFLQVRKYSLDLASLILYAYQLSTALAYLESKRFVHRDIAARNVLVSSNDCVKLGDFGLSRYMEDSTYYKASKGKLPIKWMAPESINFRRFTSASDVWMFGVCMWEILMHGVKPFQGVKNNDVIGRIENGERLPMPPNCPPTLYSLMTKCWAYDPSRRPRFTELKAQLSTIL
UniProt Q05397, whole entry: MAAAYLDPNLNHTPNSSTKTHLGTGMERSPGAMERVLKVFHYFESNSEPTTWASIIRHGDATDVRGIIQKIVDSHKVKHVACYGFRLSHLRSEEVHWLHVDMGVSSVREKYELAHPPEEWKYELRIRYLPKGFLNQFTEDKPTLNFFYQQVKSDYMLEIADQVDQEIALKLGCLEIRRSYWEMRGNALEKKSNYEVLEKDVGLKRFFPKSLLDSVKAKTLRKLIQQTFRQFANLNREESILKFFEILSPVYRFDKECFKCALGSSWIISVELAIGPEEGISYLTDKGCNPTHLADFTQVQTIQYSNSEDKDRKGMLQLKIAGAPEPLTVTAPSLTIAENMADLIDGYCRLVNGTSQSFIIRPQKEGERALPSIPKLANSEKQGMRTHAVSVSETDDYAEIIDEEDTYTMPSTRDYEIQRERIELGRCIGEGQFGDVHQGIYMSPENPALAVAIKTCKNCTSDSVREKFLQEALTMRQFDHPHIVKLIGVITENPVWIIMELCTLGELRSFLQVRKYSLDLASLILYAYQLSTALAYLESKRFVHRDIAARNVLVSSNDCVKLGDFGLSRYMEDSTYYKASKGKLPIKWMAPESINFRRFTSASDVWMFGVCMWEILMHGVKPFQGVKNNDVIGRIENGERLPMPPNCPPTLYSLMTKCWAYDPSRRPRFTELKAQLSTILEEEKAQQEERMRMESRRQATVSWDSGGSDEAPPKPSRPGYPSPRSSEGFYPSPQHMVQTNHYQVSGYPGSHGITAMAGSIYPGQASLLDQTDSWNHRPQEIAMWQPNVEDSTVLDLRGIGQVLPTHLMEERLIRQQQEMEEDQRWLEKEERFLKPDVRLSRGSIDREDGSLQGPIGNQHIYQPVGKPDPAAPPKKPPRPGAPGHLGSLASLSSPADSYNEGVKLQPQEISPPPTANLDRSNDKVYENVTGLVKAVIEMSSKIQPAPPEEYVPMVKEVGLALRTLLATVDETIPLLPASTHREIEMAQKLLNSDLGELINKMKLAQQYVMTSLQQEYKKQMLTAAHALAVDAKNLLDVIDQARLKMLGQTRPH
UniProt Q96GD4, whole entry: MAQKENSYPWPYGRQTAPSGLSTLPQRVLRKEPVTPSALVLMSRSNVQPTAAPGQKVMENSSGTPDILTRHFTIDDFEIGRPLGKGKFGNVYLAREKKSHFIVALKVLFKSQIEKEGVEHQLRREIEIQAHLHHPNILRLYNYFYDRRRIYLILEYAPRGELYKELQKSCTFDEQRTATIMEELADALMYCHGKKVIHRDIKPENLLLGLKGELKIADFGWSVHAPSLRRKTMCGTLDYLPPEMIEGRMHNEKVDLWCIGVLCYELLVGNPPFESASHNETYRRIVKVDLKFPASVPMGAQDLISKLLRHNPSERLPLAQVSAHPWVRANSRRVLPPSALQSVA
UniProt P12931, whole entry: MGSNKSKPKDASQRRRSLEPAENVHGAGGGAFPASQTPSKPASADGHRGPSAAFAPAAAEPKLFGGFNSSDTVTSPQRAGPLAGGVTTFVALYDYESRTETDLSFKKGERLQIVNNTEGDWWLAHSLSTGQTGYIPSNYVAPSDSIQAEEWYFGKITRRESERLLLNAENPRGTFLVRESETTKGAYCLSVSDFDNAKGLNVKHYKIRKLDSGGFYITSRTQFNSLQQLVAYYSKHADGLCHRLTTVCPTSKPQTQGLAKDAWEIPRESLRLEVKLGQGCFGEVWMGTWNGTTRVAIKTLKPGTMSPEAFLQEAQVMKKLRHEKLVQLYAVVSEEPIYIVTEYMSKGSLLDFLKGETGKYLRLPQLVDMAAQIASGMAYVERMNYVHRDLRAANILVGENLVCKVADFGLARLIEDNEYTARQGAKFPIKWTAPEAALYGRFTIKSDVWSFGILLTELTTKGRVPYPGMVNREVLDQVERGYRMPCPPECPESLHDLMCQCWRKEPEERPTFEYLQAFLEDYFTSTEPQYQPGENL
UniProt O60674, whole entry: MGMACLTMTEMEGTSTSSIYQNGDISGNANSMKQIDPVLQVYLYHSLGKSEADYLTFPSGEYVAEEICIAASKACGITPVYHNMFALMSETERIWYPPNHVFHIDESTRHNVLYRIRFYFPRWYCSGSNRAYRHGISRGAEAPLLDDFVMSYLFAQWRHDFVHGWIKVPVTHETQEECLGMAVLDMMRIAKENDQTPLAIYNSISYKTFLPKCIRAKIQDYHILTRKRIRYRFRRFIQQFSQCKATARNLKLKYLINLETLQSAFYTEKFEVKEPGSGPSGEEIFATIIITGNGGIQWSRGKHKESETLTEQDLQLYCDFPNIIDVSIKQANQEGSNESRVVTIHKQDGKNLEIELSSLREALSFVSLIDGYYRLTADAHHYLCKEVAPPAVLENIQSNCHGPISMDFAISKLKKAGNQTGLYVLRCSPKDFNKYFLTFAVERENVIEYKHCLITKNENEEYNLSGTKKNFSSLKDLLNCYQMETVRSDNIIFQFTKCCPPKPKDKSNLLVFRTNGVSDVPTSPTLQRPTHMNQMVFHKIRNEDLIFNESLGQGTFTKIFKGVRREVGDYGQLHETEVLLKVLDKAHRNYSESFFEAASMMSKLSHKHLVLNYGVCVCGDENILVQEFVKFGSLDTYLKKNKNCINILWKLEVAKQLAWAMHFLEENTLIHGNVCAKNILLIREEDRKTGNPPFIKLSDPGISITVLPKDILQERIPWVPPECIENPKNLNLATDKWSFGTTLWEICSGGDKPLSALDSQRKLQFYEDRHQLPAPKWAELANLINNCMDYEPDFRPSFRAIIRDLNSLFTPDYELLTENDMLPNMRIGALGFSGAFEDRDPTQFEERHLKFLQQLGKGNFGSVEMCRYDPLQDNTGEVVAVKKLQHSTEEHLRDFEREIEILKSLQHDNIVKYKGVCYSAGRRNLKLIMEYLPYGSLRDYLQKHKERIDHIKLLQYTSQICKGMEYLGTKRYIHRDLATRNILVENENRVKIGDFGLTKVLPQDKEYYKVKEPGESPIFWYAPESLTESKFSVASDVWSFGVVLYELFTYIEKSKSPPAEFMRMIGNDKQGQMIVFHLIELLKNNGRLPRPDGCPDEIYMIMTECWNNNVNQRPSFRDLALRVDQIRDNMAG

Columns and labels:
recombinant human FAK1 = recombinant human FAK1 (Homo sapiens, UniProt Q05397); assay: FAK1 HTRF assay; details: read-out: FAK1 HTRF IC50
AURKB (Aurora B) enzyme = AURKB (Aurora B) enzyme (Homo sapiens, UniProt Q96GD4); assay: Aurora B HTRF assay; details: read-out: AuroraB IC50
Phospho Src(Y416) = Phospho Src(Y416) (Homo sapiens, UniProt P12931); assay: Phospho Src(Y416) Sandwich ELISA; details: read-out: pSrc EC50 (μM) Panc1
[1] = target: FAK phosphorylated at Y397 in HEK-FAK cell line overexpressing human FL FAK protein (Homo sapiens, UniProt Q05397); assay: Cell based assay, Phospho-FAK ELISA; details: read-out: pFAK EC50 (μM) HEK stb
JAK2 = JAK2 (Homo sapiens, UniProt O60674); assay: JAK2 biochemical potency; details: read-out: JAK2 HTRF IC50

| IC50 (recombinant human FAK1) [nM] | IC50 (AURKB (Aurora B) enzyme) [nM] | EC50 (Phospho Src(Y416)) [µM] | EC50 [1] [µM] | SMILES | further results |
| --- | --- | --- | --- | --- | --- |
| < 20 | < 20 | > 1 | – | CS(=O)(=O)Nc1ccccc1Cn1ccc2cnc(Nc3ccc4c(c3)CC(=O)N4)nc21 | – |
| < 20 | < 20 | > 1 | < 0.02 | O=C(C1CC1)N1CCN(c2ccc(Nc3ncc4ccn(S(=O)(=O)c5cccc6cccnc56)c4n3)cc2)CC1 | – |
| – | – | – | – | CC(=O)Nc1cccc(Nc2ncc3ccn(C(=O)c4ccccc4OC(F)F)c3n2)c1 | IC50 (JAK2): < 20 nM |
| < 20 | < 20 | > 1 | < 0.02 | O=C1Cc2cc(Nc3ncc4ccn(S(=O)(=O)c5cccc6cccnc56)c4n3)ccc2N1 | IC50 (JAK2): < 20 nM |
| < 20 | < 20 | – | – | Cc1ccc(N(C)S(C)(=O)=O)c(Cn2ccc3cnc(Nc4ccc(N5CCN[C@H](C)C5)cc4)nc32)c1 | – |
| < 20 | – | – | – | CC(=O)N1CC2CC1CN2c1ccc(Nc2ncc3ccn(S(=O)(=O)c4cccc5cccnc45)c3n2)cc1 (stereo not shown) | – |
| < 20 | – | – | – | COc1cc(N2CCNCC2)ccc1Nc1ncc2ccn(Cc3ccccc3N(C)S(C)(=O)=O)c2n1 | – |
| – | – | > 1 | > 1 | CN(c1ncccc1Cn1ccc2cnc(Nc3ccc(C(=O)NCC(C)(C)O)c(F)c3)nc21)S(C)(=O)=O | – |
| – | – | – | > 1 | C[C@@H]1CN(c2ccc(Nc3ncc4ccn(Cc5ccccc5N(CCO)S(C)(=O)=O)c4n3)cc2)CCN1 | – |
| – | > 1000 | – | > 1 | C[C@@H]1CN(c2ccc(Nc3ncc4c(n3)N(S(=O)(=O)c3cccc5ccccc35)CC4(C)C)cc2)CCN1 | – |
| – | < 20 | – | – | CN(c1ccccc1Cn1ccc2cnc(Nc3ccc(N(C)[C@H]4CC[C@H](O)CC4)cc3)nc21)S(C)(=O)=O | – |
| – | – | > 1 | – | CN(c1ncccc1Cn1ccc2cnc(Nc3ccc(C4CNC(=O)CO4)cc3)nc21)S(C)(=O)=O (stereo not shown) | – |
| – | – | – | > 1 | CN(C)C1CCN(c2ccc(Nc3ncc4ccn(-c5cccc(N(C)S(C)(=O)=O)n5)c4n3)cc2)CC1 | – |
| < 20 | < 20 | > 1 | – | N#Cc1ccccc1S(=O)(=O)n1ccc2cnc(Nc3ccc4c(c3)CC(=O)N4)nc21 | – |
| < 20 | – | > 1 | – | Cc1cc(Nc2ncc3cnn(S(=O)(=O)c4cccc5cccnc45)c3n2)ccc1N1CCOCC1 | – |
| < 20 | – | – | – | C[C@H]1CN(c2ccc(Nc3ncc4ccn(Cc5cc(F)ccc5N(C)S(C)(=O)=O)c4n3)cc2)CCN1 | – |
| – | < 20 | – | – | N#Cc1ccccc1S(=O)(=O)n1ccc2cnc(Nc3ccc(CN4CCCC(O)C4)cc3)nc21 (stereo not shown) | – |
| < 20 | – | – | – | COCCN1CCN(c2ccc(Nc3cc4c(cn3)cnn4S(=O)(=O)c3cccc4cccnc34)c(OC)c2)CC1 | – |
| < 20 | – | > 1 | – | CCN1CCN(c2ccc(Nc3ncc4ccn(Cc5cccnc5N(C)S(C)(=O)=O)c4n3)cc2)CC1 | – |
| < 20 | < 20 | – | – | Cn1cc(Nc2cc3c(ccn3S(=O)(=O)c3cccc4cccnc34)cn2)cn1 | – |
| – | – | – | > 1 | C[C@@H](O)CN1CCN(c2ccc(Nc3ncc4ccn(Cc5cccnc5N(C)S(C)(=O)=O)c4n3)cc2)CC1 [Example 666] | – |
| < 20 | – | – | – | CC(=O)Nc1ccc(Nc2ncc3ccn(Cc4ccccc4N(C)S(C)(=O)=O)c3n2)cc1 | – |
| < 20 | – | – | – | COc1cc(N2CCC(OC(C)=O)CC2)ccc1Nc1ncc2ccn(Cc3ccccc3N(C)S(C)(=O)=O)c2n1 | – |
